Measured values published in US20170239310A1 (published 2017).

Test: in vivo
Details: rat, blood, po, 100 mg/kg

AUC(0-inf): 33 µg·h/mL
Structure (SMILES): CN(C)C(=N)N=C(N)N [Metformin, metformin]
